These results are taken from patent publication US10968215B2 (SHANGHAI HAIHE PHARMACEUTICAL CO., LTD., priority 2016, dated 2021).

By UniProt entry, the sequences of proteins in these tests, tags left out.
UniProt Q15910, whole entry Y641F: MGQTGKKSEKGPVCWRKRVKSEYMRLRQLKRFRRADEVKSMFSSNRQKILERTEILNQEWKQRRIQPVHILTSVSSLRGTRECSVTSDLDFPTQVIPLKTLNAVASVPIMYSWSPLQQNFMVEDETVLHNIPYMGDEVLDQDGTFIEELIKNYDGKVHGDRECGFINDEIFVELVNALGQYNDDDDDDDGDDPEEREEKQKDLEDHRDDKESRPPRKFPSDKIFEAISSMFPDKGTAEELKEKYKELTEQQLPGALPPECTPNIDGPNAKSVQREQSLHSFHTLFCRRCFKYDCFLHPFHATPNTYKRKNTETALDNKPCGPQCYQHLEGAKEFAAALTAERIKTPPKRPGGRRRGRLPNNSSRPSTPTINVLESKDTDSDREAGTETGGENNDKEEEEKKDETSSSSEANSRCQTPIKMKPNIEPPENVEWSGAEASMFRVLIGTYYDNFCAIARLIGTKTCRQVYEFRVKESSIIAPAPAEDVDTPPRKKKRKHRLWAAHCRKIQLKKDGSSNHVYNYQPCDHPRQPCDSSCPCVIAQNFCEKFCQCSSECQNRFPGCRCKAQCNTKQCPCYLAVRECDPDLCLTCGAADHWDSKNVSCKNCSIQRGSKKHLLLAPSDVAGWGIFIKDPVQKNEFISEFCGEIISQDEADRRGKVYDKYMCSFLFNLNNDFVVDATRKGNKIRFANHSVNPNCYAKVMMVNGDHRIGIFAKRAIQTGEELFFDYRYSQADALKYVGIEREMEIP
UniProt Q15910, whole entry: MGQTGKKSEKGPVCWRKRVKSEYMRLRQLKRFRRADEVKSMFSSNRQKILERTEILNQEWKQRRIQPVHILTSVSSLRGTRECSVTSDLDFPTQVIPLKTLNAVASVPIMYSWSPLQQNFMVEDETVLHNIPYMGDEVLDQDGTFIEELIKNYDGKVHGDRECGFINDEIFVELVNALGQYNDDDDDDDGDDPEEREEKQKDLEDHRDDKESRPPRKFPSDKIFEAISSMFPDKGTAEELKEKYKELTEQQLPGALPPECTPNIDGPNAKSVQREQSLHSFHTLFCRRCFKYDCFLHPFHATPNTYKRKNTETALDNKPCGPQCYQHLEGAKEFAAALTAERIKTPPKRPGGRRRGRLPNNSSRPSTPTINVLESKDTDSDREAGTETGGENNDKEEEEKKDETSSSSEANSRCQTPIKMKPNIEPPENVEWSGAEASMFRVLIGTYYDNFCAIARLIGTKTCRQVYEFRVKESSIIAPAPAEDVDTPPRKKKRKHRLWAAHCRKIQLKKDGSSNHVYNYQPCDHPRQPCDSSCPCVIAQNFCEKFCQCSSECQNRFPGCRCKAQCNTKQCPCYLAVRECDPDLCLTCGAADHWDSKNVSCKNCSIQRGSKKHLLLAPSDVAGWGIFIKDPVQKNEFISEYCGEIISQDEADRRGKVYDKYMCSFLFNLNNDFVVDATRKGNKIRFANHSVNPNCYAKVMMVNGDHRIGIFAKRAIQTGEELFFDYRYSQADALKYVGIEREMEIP

Assay [1] concerns the target PRC2 complex (EZH2 Y641F/EED/SUZ12/RbAp48/AEBP2) (Homo sapiens (Human), UniProt Q15910, Y641F). In words: Activity of a compound to PRC2 complex (EZH2 Y641F), HTRF.
In assay [2] the target is PRC2 complex (EZH2/EED/SUZ12/RbAp48/AEBP2) (Homo sapiens (Human), UniProt Q15910). In words: Activity of a compound to PRC2 complex (EZH2 wild type), ELISA. The settings on record: class symbols. Type of assay: biochemical. The text has this: 2. Determination of the Activity of a Compound to PRC2 Complex (EZH2 Wild Type):
Detection Method: Enzyme-Linked Immunosorbent Assay (ELISA)
MATERIALS: The PRC2 complex (EZH2/EED/SUZ12/RbAp48/AEBP2) histone methyltransferase was purchased from BPS; the substrate Biotin H3 (21-44) me0 was produced by AnaSpec; SAM was purchased from Sigma, which is GL Biochem product; methyl donor SAM was purchased from Sigma-aldrich; H3K27me3 antibody was purchased from BPS.
Experimental method: avdin of a final concentration of 100 nM was used to coat 96-well plate at 10 μL/well, placed in a wet box and shaken overnight, and then 100 μL 3% BSA per well was added and blocked for 1 h at room temperature. PRC2 complex (EZH2/EED/SUZ12/RbAp48/AEBP2), H3 (21-44) me0 substrate, methyl donor SAM and compound were added into each well of the blocked 96-well plate. The total reaction system was 100 μL, placed in a wet box and allowed to react for 1 h on shaker at room temperature. The plate was washed with TBS-T [20 mM Tris-HCl (pH 7.2-7.4, room temperature), 150 mM NaCl, 0.1% (v/v) Tween-20] for 3 times, blocked with 3% BSA for 10 min, and anti-H3K27me3 antibody was added and incubated for 1 h in a wet box on shaker at room temperature. […] The plate was read by a plate reader at 490 nm and IC50 of the compound was calculated using SoftMax Pro 5.4.1 software.
For orientation: ELISA stands for enzyme-linked immunosorbent assay.

Read-outs that look alike come from different tables or passages of the source.

For the compound `Cc1cc(C)c(CNC(=O)c2cc3cc(Br)cn3c(C(C)N3CCOCC3)c2C)c(=O)[nH]1` (stereo not shown) [Example 29, 2-bromo-N-((4,6-dimethyl-2-oxo-1,2-dihydropyridin-3-yl)methyl)-6-methyl-5-(1-morpholinylethyl)indolizine-7-carboxamide], the concentration for half-maximal inhibition (IC50) – broadly, the concentration that gives 50% inhibition – in assay [1] was under 0.1 µM. `COc1cc(C)[nH]c(=O)c1CNC(=O)c1cc2c(-c3ccn[nH]3)ccn2c(C(C)N2CCN(CC(F)(F)F)CC2)c1C` (stereo not shown) [Compound 154, N-((4-methoxy-6-methyl-2-oxo-1,2-dihydropyridin-3-yl)methyl)-6-methyl-1-(1H-pyrazol-5-yl)-5-(1-(4-(2,2,2-trifluoroethyl)piperazin-1-yl)ethyl)indolizine-7-carboxamide] showed a half-inhibitory concentration (IC50) in assay [2] of under 0.1 µM.

For the compound `COc1cc(C)[nH]c(=O)c1CNC(=O)c1cc2c(-c3ccn[nH]3)ccn2c([C@H](C)N2CCN(CC(F)(F)F)CC2)c1C` (single isomer, unassigned) [Compound 155, (S)—N-((4-methoxy-6-methyl-2-oxo-1,2-dihydropyridin-3-yl)methyl)-6-methyl-1-(1H-pyrazol-5-yl)-5-(1-(4-(2,2,2-trifluoroethyl)piperazin-1-yl)ethyl)indolizine-7-carboxamide or (R)—N-((4-methoxy-6-methyl-2-oxo-1,2-dihydropyridin-3-yl)methyl)-6-methyl-1-(1H-pyrazol-5-yl)-5-(1-(4-(2,2,2-trifluoroethyl)piperazin-1-yl)ethyl)indolizine-7-carboxamide], the IC50 in assay [2] was under 0.1 µM; in assay [1] (read-out: IC50 (EZH2_Y641F), EZH2 Y641F PRC2 complex, HTRF, class symbols), 0.1 to 1 µM.
